The values below come from PMC4965700.

Protein sequences, listed by entry. Tags and fused reporters are not part of them. Residues count along the entry.
UniProt P39940, 421-809: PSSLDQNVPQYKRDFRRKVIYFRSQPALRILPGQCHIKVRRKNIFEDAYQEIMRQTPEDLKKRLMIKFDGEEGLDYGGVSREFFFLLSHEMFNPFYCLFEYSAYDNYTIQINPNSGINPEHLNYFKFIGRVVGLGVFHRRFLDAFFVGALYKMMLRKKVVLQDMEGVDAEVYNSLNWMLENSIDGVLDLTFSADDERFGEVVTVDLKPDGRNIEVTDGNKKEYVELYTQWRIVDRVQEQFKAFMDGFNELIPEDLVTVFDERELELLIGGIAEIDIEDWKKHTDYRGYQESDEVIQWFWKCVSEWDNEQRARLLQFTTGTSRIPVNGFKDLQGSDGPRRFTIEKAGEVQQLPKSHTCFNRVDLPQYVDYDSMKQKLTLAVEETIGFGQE

The test concerns the target Rsp5 HECT (S. cerevisiae) (UniProt P39940).

UbFluor (from UniProt P0CG48 1-76): the apparent KM of the multi-turnover (MT) consumption of UbFluor by Rsp5 HECT, Michaelis–Menten fit of initial velocities by fluorescence polarization came to 792 µM.
